The target in assay [1] is T1, Xanthine oxidase (XO; from bovine milk) (Bos taurus, UniProt P80457).
T1 construct: Xanthine oxidase (XO; from bovine milk); purchased Sigma-Aldrich; host or cells: bovine milk
The assay can be described thus: XO-catalyzed xanthine oxidation (uric acid formation), HPLC. It is filed as biochemical. To be noted: substrate xanthine 5 μM; inhibitor 0–20 μM. On the procedure:
(§1) Chrysin-7-glucuronide (C7G) and 6-thiouric acid were purchased from Carbosynth (Berkshire, UK). Chrysin-7-sulfate (C7S) was synthetized as described. Stock solutions of flavonoids (each 2 mM) were prepared in dimethyl sulfoxide (DMSO) and stored at −20 °C.
(§2) To test the inhibitory effects of flavonoids and their metabolites on the XO-catalyzed oxidation of xanthine and 6MP, the previously reported methods were applied without modifications. […] In each experiment, solvent controls (DMSO) were used. Metabolite formation (% of control) was plotted vs. the inhibitor concentrations in decimal logarithmic scale. IC50 values were evaluated by sigmoidal fitting, employing GraphPad Prism 8 software (San Diego, CA, USA).
(§3) After the in vitro XO assays, xanthine and uric acid as well as 6MP and 6-thiouric acid were quantified by the HPLC-UV methods described in our previous report, without any modifications.

Amino acid sequences for entries named in this document (tags omitted).
UniProt P80457, whole entry: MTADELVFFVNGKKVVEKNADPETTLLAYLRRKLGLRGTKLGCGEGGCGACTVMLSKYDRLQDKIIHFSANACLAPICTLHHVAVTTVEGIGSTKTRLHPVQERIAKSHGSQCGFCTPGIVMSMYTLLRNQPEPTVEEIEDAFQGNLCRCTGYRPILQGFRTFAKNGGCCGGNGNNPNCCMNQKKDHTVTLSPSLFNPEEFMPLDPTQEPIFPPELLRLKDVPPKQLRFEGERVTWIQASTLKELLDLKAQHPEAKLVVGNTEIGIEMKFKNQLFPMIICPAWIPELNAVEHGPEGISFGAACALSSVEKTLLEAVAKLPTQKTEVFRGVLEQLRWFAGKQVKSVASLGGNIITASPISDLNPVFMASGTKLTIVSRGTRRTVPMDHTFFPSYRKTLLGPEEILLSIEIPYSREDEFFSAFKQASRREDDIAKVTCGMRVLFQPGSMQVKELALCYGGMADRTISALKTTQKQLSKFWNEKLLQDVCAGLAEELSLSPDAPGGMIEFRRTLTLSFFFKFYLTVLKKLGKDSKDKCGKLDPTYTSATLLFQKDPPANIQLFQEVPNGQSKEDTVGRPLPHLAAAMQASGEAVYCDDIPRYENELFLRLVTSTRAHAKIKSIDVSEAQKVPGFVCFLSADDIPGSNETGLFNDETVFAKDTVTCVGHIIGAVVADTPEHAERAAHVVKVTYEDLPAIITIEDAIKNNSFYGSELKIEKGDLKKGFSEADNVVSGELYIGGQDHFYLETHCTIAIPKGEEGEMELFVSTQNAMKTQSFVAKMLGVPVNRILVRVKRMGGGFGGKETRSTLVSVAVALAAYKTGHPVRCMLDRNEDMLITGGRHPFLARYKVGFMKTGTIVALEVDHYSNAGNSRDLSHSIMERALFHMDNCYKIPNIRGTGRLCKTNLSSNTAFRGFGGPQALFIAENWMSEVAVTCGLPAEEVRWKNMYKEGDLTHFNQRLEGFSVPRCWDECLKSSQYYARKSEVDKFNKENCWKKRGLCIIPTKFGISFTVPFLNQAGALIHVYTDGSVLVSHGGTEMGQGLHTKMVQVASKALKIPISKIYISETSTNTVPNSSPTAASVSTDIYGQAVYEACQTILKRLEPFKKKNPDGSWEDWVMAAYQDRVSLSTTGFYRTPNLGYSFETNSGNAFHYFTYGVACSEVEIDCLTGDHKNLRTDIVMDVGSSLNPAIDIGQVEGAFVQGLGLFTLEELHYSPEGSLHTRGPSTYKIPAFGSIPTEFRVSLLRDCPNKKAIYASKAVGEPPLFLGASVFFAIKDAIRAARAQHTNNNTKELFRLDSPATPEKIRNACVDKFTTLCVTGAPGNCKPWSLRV

In assay [2] the target is T1, Xanthine oxidase (XO; from bovine milk). The assay can be described thus: XO-catalyzed 6-mercaptopurine oxidation (6-thiouric acid formation), HPLC. Format: biochemical. To be noted: substrate 6MP 5 μM; inhibitor 0–20 μM. On the procedure: as §1, §2, §3

Experimental findings from paper PMC7246923, “Inhibition of Xanthine Oxidase-Catalyzed Xanthine and 6-Mercaptopurine Oxidation by Flavonoid Aglycones and Some of Their Conjugates” (International Journal of Molecular Sciences, 2020) are described below.

Usually IC50 stands for the point on the concentration scale where inhibition reaches its midpoint. As for `O=c1c(O)c(-c2ccc(O)cc2)oc2cc(O)cc(O)c12` [Kaempferol, 3,5,7,4′-tetrahydroxyflavone], the concentration for half-maximal inhibition (IC50) turned out to be 290 nM in assay [1] and 380 nM in assay [2].
